# In PubChem BioAssay AID652025 (National Center for Advancing Translational Sciences (NCATS), 2013):
# The list shows a part of the results, in another mix than the full data. Active and inactive are the calls of the source. Cut-off read from the data, not from the text of the source: active = activation above about 50%; inconclusive = mostly about 30% to 49%; inactive = weaker than that.
# Test: qHTS of IL-2 Activators; note: 0% is about no effect
# Details: IL-2 activation reporter assay, cell-based qHTS; stronger effect = higher value; in transgenic mouse T cells; stimulated with anti-CD3/CD4/CD28 beads
# Description: The adaptive immune response against any infectious agent begins with the activation of an antigen specific T cell. This relatively rare and inert ("naive") T cell undergoes a massive proliferative expansion and differentiation process to generate sufficient number of potent pathogen-specific effector T cells. The effector T cells fight the infection by making cytokines and helping other cells to become fully armed as well. If any naive T cell has antigen receptors (TCRs) that can be activated by self peptides, then a variety of regulatory mechanisms kick in to prevent this cell from performing to its full potential. These processes collectively constitute the phenomenon of immunological tolerance and their failure leads to autoimmunity. One arm of tolerance involves generation of biochemical negative feedback downstream of the TCR (tuning). This is especially relevant to self antigens present in the body over long periods of time (chronic), which form the bulk of our proteome. The negative feedback serves to tune the TCR signaling, such that the ambient antigenic stimulation is nullified intracellularly. Unfortunately, this critical machinery serves as a target for chronic viral, bacterial and parasitic infections (as well as tumors), which can evade a robust immune response, simply by allowing T cells to tune down their signaling to pathogen or malignancy derived antigens. As such, disrupting the tuning in such cases would allow the tolerant T cell to function again and deliver a robust effector response.
# If a therapeutic can restore responsiveness to the tuned down T cell, even for a short time, they could combat the pathogen without any additional immunization. To that end, we have developed a sensitive HTS T cell based assay based on IL-2. This assay will be screened against the Molecular Libraries Small Molecule Repository (MLSMR) to find small molecules that could elicit this response.
# NIH Chemical Genomics Center [NCGC]
# NIH Molecular Libraries Probe Centers Network [MLPCN]
# Assay Submitter (PI): Ron Schwartz, NIAID
# 4 microL (750 cells/well) of unstimulated transgenic mouse T cells (columns 1-3,5-48) are dispensed into Aurora LoBase, black clear-bottom 1536-well assay plates; column 4 receives an identical concentration of transgenic memory T cells as a non-tolerant control. Compounds are then transferred via Kalypsys pin tool equipped with 1536-pin array (10 nL slotted pins, V&P Scientific, San Diego, CA). Following addition of compound and a 60 minute incubation, 1 microL of bead stimulation solution ((0.04 micron Fluospheres (Life technologies, CA) coated with 10ug/ml each anti-CD3 and anti-CD4 (clones 2C11 and GK1.5, BD Biosciences, CA) and mixed with 1ug/ml anti-CD28 (clone PV-1, BD biosciences, CA)). columns 2-48) is added to stimulate the IL-2 response pathway; media is instead added to column 1 as an unstimulated control, while PMA/ionomycin (Sigma Aldrich, MO) is added to column 3 as a control for IL-2 tolerance bypass. The plates are then incubated at 37 degrees C for 18 hours. EGFP and DsRed signal are then detected using an Acumen eX3 Explorer fluorescent plate cytometer. All cells are dispensed in cell media containing EHAA (Quality Biologicals, MD), RPMI (Quality Biologicals, MD), Glutamine (Life Technologies, CA), Penicillin/Streptomycin (Quality Biologicals, MD), 2-ME (Sigma Aldrich, MO) and 10% FBS (Gemini Bioproducts, CA) .
row,Structure (SMILES),activation
1,Clc1ccc(Cl)c(NC2=NCC(CBr)S2)c1 (stereo not drawn),inactive: 0.256%
2,CN1CCCC(OC(=O)C(c2ccccc2)c2ccccc2)C1 (stereo not drawn),inactive: -0.916%
3,Cc1ccc(OP(=O)(Nc2nccs2)Oc2ccc(C)cc2)cc1,inactive: -0.207%
4,COc1ccccc1OP(=O)(Nc1ccc(C)cn1)Oc1ccccc1OC,inactive: -2.75%
5,Nc1cccc2ccc([As](=O)(O)O)cc12,inactive: 0.54%
6,CCN(N=Nc1nonc1N)c1nonc1N,inactive: 0.423%
7,CN(C)P(=O)(N(C)C)n1c(Nc2ccccc2)nnc1-c1ccccc1,inactive: -2.67%
8,O=P(Nc1nc2ccc(Cl)cc2s1)(c1ccccc1)c1ccccc1,inactive: 2.21%
9,CCCC1OP(N)(=O)OCC1CC (stereo not drawn),inactive: -0.0479%
10,O=C(O)c1ccccc1[As](=O)(O)O,inactive: -0.741%
11,CC(=O)Nc1ccc([As](=O)(O)O)cc1,inactive: -3.38%
12,CN(C(=O)Cc1ccc(Cl)c(Cl)c1)[C@H]1CCCC[C@@H]1N1CCCC1,inactive: 0.662%
13,Cc1ccc(NP(=O)(Oc2ccccc2F)Oc2ccccc2F)nc1,inactive: -3.27%
14,CCOP(=O)(Nc1ccccc1)OCC,inactive: -0.495%
15,Cc1cc(SC(NC(=O)c2ccc(F)cc2)C(Cl)(Cl)Cl)ncn1 (stereo not drawn),inactive: -0.645%
16,O=[N+]([O-])c1ncn(CCn2ncnc2[N+](=O)[O-])n1,inactive: 0.192%
17,CC(C)(C)C(=O)NC(Sc1ccncn1)C(Cl)(Cl)Cl (stereo not drawn),inactive: 2.61%
18,O=C(O)CNc1ccc([As](=O)(O)O)cc1,inactive: 0.889%
19,O=[N+]([O-])c1cccc(NC2=NCC(CBr)S2)c1 (stereo not drawn),inactive: -0.022%
20,COC(=O)C1(C)COP(=O)(Nc2ccccc2)OC1 (stereo not drawn),inactive: -1.8%
21,O=P1(N(CCCl)CCCl)OCCCS1 (stereo not drawn),inactive: 1.07%
22,O=C(Nc1cc([As](=O)(O)O)ccc1O)c1ccccc1,inactive: -1.82%
23,CCN(/C(=N/P(=O)(N1CCOCC1)N1CCOCC1)N1CCOCC1)c1ccc(OC)cc1,inactive: 2%
24,C[N+]1=C2C=CC=CC=C2SC12C([N+](=O)[O-])=CC([N+](=O)[O-])=C[C-]2[N+](=O)[O-] (stereo not drawn),inactive: -1.02%
25,Nc1ccc([As](=O)(O)c2ccc(N)cc2)cc1,inactive: -2.89%
26,c1cc(-c2nn[nH]n2)ccc1-c1nn[nH]n1,inactive: -0.027%

row,Structure (SMILES),activation
1,CC1CCN(C(=O)Oc2c(Cl)cc(Cl)c3cccnc23)CC1,inactive: -0.858%
2,CN(C)C(=O)OCCc1n(C)cc[n+]1C,inactive: -4.12%
3,CC(C)=N/N=C(\N)N[N+](=O)[O-],inactive: -0.634%
4,CC(C)c1nc(Nc2ccccc2)n(P(=O)(N(C)C)N(C)C)n1,inactive: 1.38%
5,COc1ccc(C2=NCC(CBr)S2)cc1 (stereo not drawn),inactive: -1.39%
6,O=[N+]([O-])c1cc([N+](=O)[O-])c(CCNc2ccccc2)c([N+](=O)[O-])c1,inactive: -0.319%
7,CCc1nc2c(n1)c1c(non1O)c1c2no[n+]1[O-],inactive: -0.648%
8,Cc1ccc(NP(=O)(Oc2ccccc2)Oc2ccccc2)nc1,inactive: -1.68%
9,CC(=O)N1C2C3N(C(C)=O)C1C1N(C(C)=O)C(C(N1C(C)=O)N3C(C)=O)N2C(C)=O,inactive: 0.0937%
10,O=[N+]([O-])c1cccc2n[nH]nc12,inactive: -0.286%
11,O=P(Nc1nccs1)(c1ccccc1)c1ccccc1,inactive: -0.494%
12,CC(C)C(=O)NC(Sc1ccccc1)C(Cl)(Cl)Cl (stereo not drawn),inactive: -4.42%
13,c1nnnn1CCn1cnnn1,inactive: -0.755%
14,O=[As](O)(c1ccccc1)c1ccc(O)cc1,inactive: -2.55%
15,CC(=O)NC(SC(=S)N(C)C)C(Cl)(Cl)Cl (stereo not drawn),inactive: -0.469%
16,O=[N+]([O-])c1ncn(CCn2cnc([N+](=O)[O-])n2)n1,inactive: -4.13%
17,O=[N+]([O-])c1ccc(O)c(/C=N/Nc2ccc([N+](=O)[O-])cc2[N+](=O)[O-])c1,inactive: -1.08%
18,O=C(OC1CN2CCC1CC2)c1cccc(Cl)c1 (stereo not drawn),inactive: -1.95%
19,Nc1ccc([As](=O)(O)c2ccc([N+](=O)[O-])cc2)cc1,inactive: 1.28%
20,C(Cc1nn[nH]n1)Cc1nn[nH]n1,inactive: 0.96%
21,CN(C)C1(CNC(=O)c2ccc(Cl)c(S(N)(=O)=O)c2)CCCCC1,inactive: -3.18%
22,O=P(Nc1ccccn1)(c1ccc(Br)cc1)c1ccc(Br)cc1,inactive: -1.8%
23,Nc1ccc(CCCCOc2ccccc2)cc1,inactive: -0.107%
24,COc1ccc(N)c([N+](=O)[O-])c1[N+](=O)[O-],inactive: 0.996%
25,C[C@H]1OP(=O)(Oc2ccccc2)[C@H](O)[C@H](O)[C@H]1N=[N+]=[N-] (stereo partly drawn),inactive: 0.206%
26,O=P(Nc1nc2ccccc2s1)(c1ccccc1)c1ccccc1,inactive: 4.39%

row,Structure (SMILES),activation
1,CCC(=O)N1C2C3N(C(=O)CC)C1C1N(C(=O)CC)C(C(N1C(=O)CC)N3C(=O)CC)N2C(=O)CC,inactive: -0.501%
2,O=C(OC1CN2CCC1CC2)c1ccccc1 (stereo not drawn),inactive: -3.95%
3,CC(=O)NC(SC(=S)N(CC(C)C)CC(C)C)C(Cl)(Cl)Cl (stereo not drawn),inactive: 1.2%
4,Cc1ccc(OP(=O)(Nc2ccccn2)Oc2ccc(C)cc2)cc1,inactive: -0.71%
5,COC(=O)c1cc2c(s1)N=C(c1ccccc1)N(C)P2(=O)N1CCOCC1 (stereo not drawn),inactive: 0.0574%
6,CN(C)C(=O)Oc1noc2ccccc12,inactive: 1.21%
7,O=c1c2cc([N+](=O)[O-])ccc2[nH]c2c([N+](=O)[O-])cc([N+](=O)[O-])cc12,inactive: -0.746%
8,Cc1ccccc1OP(=O)(Nc1ccccn1)Oc1ccccc1C,inactive: 0.339%
9,CC(NC(=O)COC(=O)C(O)(c1ccccc1)c1ccccc1)c1ccccc1 (stereo not drawn),inactive: 0.462%
10,Cc1ccc(NP(=O)(Oc2cccc(C)c2)Oc2cccc(C)c2)nc1,inactive: -0.422%
11,c1ccc(-c2nn[nH]n2)c(-c2nn[nH]n2)c1,inactive: -0.0633%
12,O=C(NC1CCS(=O)(=O)C1)NP(=S)(Oc1ccccc1)Oc1ccccc1 (stereo not drawn),inactive: -1.2%
13,CCNC(=S)/N=C(\N)N[N+](=O)[O-],inactive: -1.2%
14,O=P1(N(CCCl)CCCl)OCCC2CCCCN21 (stereo not drawn),inactive: 1.19%
15,C[C@@H]1C=CCP(=O)(Oc2ccccc2)O1 (stereo partly drawn),inactive: -0.343%
16,C[C@H]1OP(=O)(Oc2ccccc2)C[C@@H]2O[C@@H]21 (stereo partly drawn),inactive: -0.316%
17,Cc1ccccc1CN(C)C(=O)COC(=O)C(O)(c1ccccc1)c1ccccc1,inactive: -0.128%
18,COC(=O)C1(C)COP(=O)(NCc2ccccc2)OC1 (stereo not drawn),inactive: -2.75%
19,N#C/C(=C\c1ccc(N(CCBr)CCBr)cc1)C(N)=O,inactive: -6.17%
20,CC(=O)c1ccc(N2CC2c2ccncc2)cc1 (stereo not drawn),inactive: 0.302%
21,CC(=O)Nc1ccc(Oc2c([N+](=O)[O-])cc([N+](=O)[O-])cc2[N+](=O)[O-])cc1,inactive: -0.158%
22,CC(=O)Nc1ccc([As](=O)(O)O)c(O)c1,inactive: 0.0314%
23,CCOc1ccc(C2=NCC(CBr)S2)cc1 (stereo not drawn),inactive: -0.305%
24,O=P1(Nc2nc3ccc(Cl)cc3s2)COc2ccccc2O1 (stereo not drawn),inactive: -1.65%
25,CC(C)(C)C(=O)NC(Sc1ccccc1)C(Cl)(Cl)Cl (stereo not drawn),inactive: 1.84%
26,CCc1cc(O)c([N+](=O)[O-])c(C)c1[N+](=O)[O-],inactive: -0.245%
